# AlphaSeq binding of Ab-95 light chain variants to a spike HR2 peptide

Reference: Engelhart et al. 2022, doi:10.1038/s41597-022-01779-4. File: FLAb, binding data.

Binding partner: SARS-CoV-2 spike HR2 peptide, sequence PDVDLGDISGINAS.

Parent scFv Ab-95: VH joined to VL by the linker GGGGSGGGGSGGGGS. Changes lie in the light chain CDRs alone.
VH: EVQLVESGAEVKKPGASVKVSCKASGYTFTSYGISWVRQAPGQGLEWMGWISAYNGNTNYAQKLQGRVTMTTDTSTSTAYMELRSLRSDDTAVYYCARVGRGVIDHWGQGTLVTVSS
VL: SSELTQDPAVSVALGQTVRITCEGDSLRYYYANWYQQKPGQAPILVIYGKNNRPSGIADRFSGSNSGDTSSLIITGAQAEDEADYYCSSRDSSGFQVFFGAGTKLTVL

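Phage display of a naive human antibody library on the peptide gave the parent. AAYL52 was designed without a model: most single CDR substitutions and a random sample of double and triple ones. Affinity was read by AlphaSeq, a pooled yeast mating assay with surface-displayed partners. The frequency of each diploid, read from paired DNA barcodes, reflects how well the two displayed proteins bind. Read counts were normalised to the haploid input and turned into Kd by a linear fit to BCL2-family pairs of known affinity, for each replicate. Mating was done three times.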

Variants are written as CDR1, CDR2 and CDR3 of the light chain (limits as in the source). Parent: EGDSLRYYYAN, GKNNRPS, SSRDSSGFQVF.
The read-out is the apparent dissociation constant on a log10 scale (nM): the lower, the stronger.
Replicates are averaged; those with no signal do not enter the mean.
"nd" means that the variant was in the library but no mating with the target was seen in any replicate; the authors take this as a sign of poor binding, and no number exists.
Background: pairings of library AAYL52 with three empty control strains gave a value in 28% of cases (median 3.91, 5th percentile 2.90). Values in that range, when seen in few replicates, are hard to tell from nonspecific mating.

Result 3.29 (3 of 3 replicates), variant EGDSLRYIYAN / GKNNKPS / SSRDFSGFQVF.
Result 3.97 (3 of 3 replicates), variant RGDSTRYYYAP / GKNNRPS / SSRDSSGFQVF.
Result nd (0 of 3 replicates), variant EGDTLRYYYAN / GKNPRPS / SSRDSGGFQVF.
Result nd (0 of 3 replicates), variant EGDSPRYYYAN / GKNNRPS / SSRDSSGFPQF.
Result nd (0 of 3 replicates), variant EGDSLRYYYAN / GKNYRPS / SSRDSSSFSVF.
Result 2.16 (3 of 3 replicates), variant PGDSLRYYYAN / GKNNRPQ / SSRDMSGFQVF.
Result 4.25 (1 of 3 replicates), variant EGESLRYYYAW / GKNNRPS / SSRDSSGFFVF.
Result 3.49 (2 of 3 replicates), variant EGDSKRYYYAN / GKFNRPY / SSRDSSGFQVF.
Result 1.71 (3 of 3 replicates), variant EGDSLRYYPAN / SKNNRPS / SSRDISGFQVF.
Result 3.92 (2 of 3 replicates), variant EEDSVRYYEAN / GKNNRPS / SSRDSSGFQVF.
Result 3.01 (3 of 3 replicates), variant EGDSYRYYYPN / GKNNRPS / SSRDSSGFQVY.
Result nd (0 of 3 replicates), variant EGDSLRYYYQN / GLNNRPM / SSRDSSGFQVF.
Result 3.22 (3 of 3 replicates), variant EGDSLRCYYAL / GKNNRPS / SSRDSSGFQVF.
Result 4.91 (2 of 3 replicates), variant EGDSLRYYYAN / RKDNRPS / SSRDSSGFQDF.
Result 3.67 (2 of 3 replicates), variant EGDSLRYYYAN / GKNRCPS / SSRDSNGFQVF.
Result 1.81 (3 of 3 replicates), variant EGDSLRYSYAN / GKNNRPW / WSRDSSGFQVF.
Result 4.63 (1 of 3 replicates), variant EGDSLRYYMKN / GKNNRYS / SSRDSSGFQVF.
Result 3.21 (3 of 3 replicates), variant EGDSLRYYYLN / GKNNRCS / SSRDTSGFQVF.
Result 4.22 (2 of 3 replicates), variant EGDSLRYYYDN / GKNNRPS / SSRYSSGFQVF.
Result 4.24 (3 of 3 replicates), variant EGDSLRYYYAN / GKHNRRS / SSRDSSGSQVF.
Result 2.74 (3 of 3 replicates), variant EGDSLEYYYAN / GGNNRPS / SMRDSSGFQVF.
Result 2.46 (3 of 3 replicates), variant EGDSLKYYYAN / GKNNRLS / SSRDQSGFQVF.
Result 3.95 (3 of 3 replicates), variant EGDSCRYYYAI / GKFNRPS / SSRDSSGFQVF.
Result 4.38 (2 of 3 replicates), variant EGDSLRYYYAN / SKNNAPS / SSRDSSLFQVF.
Result 3.63 (1 of 3 replicates), variant EGDSWRYYYAN / IKNNPPS / SSRDSSGFQVF.
Result 3.02 (3 of 3 replicates), variant EGDSLRYYYAN / GKNNRPS / SSRGFSGFQVN.
Result 4.56 (3 of 3 replicates), variant EGDSLRYYYRN / WKNNRPS / SSRDSSGFYVF.
Result 4.03 (2 of 3 replicates), variant CGDSDRAYYAN / GKNNRPS / SSRDSSGFQVF.
Result nd (0 of 3 replicates), variant EGDSLRYYYAN / WKNNRPS / SSRDSSNFMVF.
Result 4.41 (2 of 3 replicates), variant EGDPLRYYYAM / GKNNRPS / RSRDSSGFQVF.
Result 3.81 (2 of 3 replicates), variant EGCSLRYTYAN / GKNNRPS / SNRDSSGFQVF.
Result 4.67 (3 of 3 replicates), variant EEDSLRYYYAN / GKNNRPS / STRDSYGFQVF.
Result 3.57 (1 of 3 replicates), variant EGDSLRRYYAN / GKNFRPS / SSGDSSGFQVF.
Result 2.87 (3 of 3 replicates), variant EGDSLRYYYAN / GKNNSPS / SSNDSSGNQVF.